Screens (PubChem)
Most compounds without a hit are left out; they make up all but 2.9% or so of the library.
Rango release inh: inhibition of RanGTP-driven Rango-importin beta dissociation; hit rate 0.071% among 340,000; AID 540253; O95149+P62826; Biochemical FRET Rango-importin beta, RanGTP-induced dissociation; Potency, µM (titrated, usually from 46.1 µM); also: nearly all actives have a fitted effect of over 45% in size
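FRET read at 45 min, room temperature: inhibitors block the CFP/YFP signal rise when RanGTP (0.6 uM Ran, 2 mM GTP, 0.2 uM RCC1) frees Rango (0.1 uM) from importin beta (0.25 uM). Pre-read after 5 min compound exposure flags interference.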
D3 ag: agonists of human D3 dopamine receptor | max activation, % | P35462 | hit rate 0.58% among 410,000 | D3R DiscoveRx beta-arrestin cells, luminescence, 90 min; in the data active = max activation above about 30%
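Agonist mode: compounds and dopamine controls were applied to plated cells for 90 min at 37 degrees C after an overnight attachment at 1500 cells/well. Luminescent read-out followed 30 - 60 minutes at room temperature with DiscoveRx detection reagent.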
PTAP TSG101 blk: blocks PTAP/TSG101 interaction to inhibit HIV-1 budding. Potency, µM (doses to about 115 µM), actives largely listed as inhibitors. Fluorescence polarization, FITC-PTAP peptide / Tsg101 binding. Q99816. 340,000 tested, under 10 active; active = well fitted inhibition curve with a large enough effect in the main read-out, with a control signal flat, not every such curve was filed as active; inconclusive = small, poorly fitted or top-dose-only effect, or effect the other way, or a change in a side signal; inactive = no such curve, though single readings can be large or run the other way
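Tsg101 binding domain (10 uM final) was mixed with compound and a FITC-labeled PTAP peptide (50 nM final) in HEPES pH 7.5 buffer with NaCl, Tween 20, EDTA and TCEP; fluorescence polarization was read after 20 min at r.t.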
DRD3 antagonist: blocks the human D3 dopamine receptor; P35462; D3R cells, DiscoveRx beta-arrestin luminescence, antagonist mode; stronger effect = lower value; max response, negative = inhibition, %; hit rate 2.5% among 360,000; AID 652054; in the data active = max response below about -50%; inconclusive = no clear call, values can overlap the other calls
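Cells plated overnight at 1500 cells/well, then exposed to library compounds with dopamine controls for 90 minutes at 37 degrees C. DiscoveRx reagent added for 30–60 minutes at room temperature; luminescence read, quantitative HTS format.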
MmCpn inh: blocks the Methanococcus maripaludis chaperonin Mm-Cpn | purified Mm-Cpn ATPase, ADP Transcreener TR-FRET | Potency, µM (series often up to 76.9 µM), actives largely listed as inhibitors | hit rate 0.031% among 330,000 | AID 504842; active = well fitted inhibition curve with a large enough effect; inconclusive = small, poorly fitted or top-dose-only effect; also: nearly all actives have a fitted effect of over 80% in size
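Purified archaeal Mm-CPN (25nM final) preincubated 10 min at 37degC with compound, then 10uM ATP for 30 min at 37degC; ADP measured by HTRF Transcreener TR-FRET; buffer 30 mM TRIS pH 7.4, 100mM KCl, 5mM MgCl2, 1mM DTT.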
Rango-impB inh: inhibitors of Rango-importin beta complex formation; Q14974; Rango CFP/YFP FRET sensor + importin beta, 45 min; Potency, µM (series often up to 92.2 µM); hit rate 0.031% among 340,000; also: nearly all actives have a fitted effect of over 15% in size
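FRET biosensor Rango (snurportin 1 IBB between N-terminal EYFP and C-terminal Cerulean), 50 nM in PBS/1 mM DTT/0.02% Tween-20/0.1% BSA, preincubated 5 min RT with compound; 0.125 microM importin beta added, 45 min RT, CFP/YFP FRET ratio read.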
A number is an active result; 0 = inactive; ? = inconclusive; - = not tested or not shown. Unless noted, calls follow the shape of the full dose curve.

SMILES	Rango release inh	D3 ag	PTAP TSG101 blk	DRD3 antagonist	MmCpn inh	Rango-impB inh
CNC(=O)c1nnsc1S(=O)c1ccc(Cl)cc1 (stereo unspecified)	0	0	0	-55	0	0
CCCNC(=O)c1nnsc1S(=O)(=O)c1ccc(Cl)cc1	0	0	0	-85	0	0
CCCNC(=O)c1nnsc1S(=O)c1ccc(Cl)cc1 (stereo unspecified)	0	0	0	-78	0	0
COc1ccc2c(CNCCc3ccccc3OC)c(C(=O)O)n(Cc3ccc(F)cc3Cl)c2c1	-	0	-	-	-	-
Cc1ccc(C)c(NC(=O)CSc2ncc3c(n2)-c2ccc(Cl)cc2N(C)S3(=O)=O)c1	-	0	-	-	-	-
COCCCNc1nc2c(-c3cccc(Br)c3)nnn2c2ccccc12	-	0	-	-	-	-
C=CCNC(=S)NNC(=O)c1cccn(Cc2cccc(Cl)c2)c1=O	0	0	0	0	0	0
C=CCNC(=S)NNC(=O)c1cccn(Cc2ccc(Cl)cc2)c1=O	0	0	0	-67	0	0
CCn1c(=O)c(C(=O)Nc2ccccc2)c(O)c2ccccc21	0	0	0	0	0	0
CCCn1c(=O)c(C(=O)Nc2ccccc2C(=O)OCC)c(O)c2ccccc21	0	37	0	0	0	0
CCn1c(=O)c(C(=O)Nc2nc3ccccc3[nH]2)c(O)c2ccccc21	?	0	0	-62	0	?
CCc1ccc(N2C(=O)CS(=O)(=O)C23C(=O)N(Cc2ccccc2F)c2ccccc23)cc1 (stereo unspecified)	-	0	-	-	-	-
CCOC(=O)c1sc(NC(=O)/C=C/c2ccc(OCC)cc2)c(C(=O)OCC)c1C	-	0	-	-	-	-
CCOC(=O)c1sc(NC(=O)/C=C/c2cnn(C)c2C)c(C(=O)OC(C)C)c1C	0	35	0	0	0	0
COCCN1CC(CNC(=O)c2cc(COc3ccccc3SC)on2)CC1=O (stereo unspecified)	0	0	0	0	0	?
O=C(CN1C(=O)C2(SCC(=O)N2c2cccc(F)c2)c2ccccc21)NCc1ccccc1Cl (stereo unspecified)	-	0	-	-	-	-
NS(=O)(=O)c1ccc(CCNC/C=C/c2ccccc2)cc1	0	0	0	-71	0	0
COc1ccc(CCNCc2ccc(OCc3ccccc3)cc2)cc1	0	0	0	0	0	0
COc1ccc(CNC/C=C/c2ccccc2)cc1	?	0	0	-80	0	0
COc1ccc(CCNC/C=C/c2ccccc2)cc1	0	0	0	-59	-	0
NS(=O)(=O)c1ccc(CCNCC#Cc2ccccc2)cc1	0	0	0	0	0	0
COC(=O)c1ccc(NC(=O)CN(c2cccc(C(F)(F)F)c2)S(C)(=O)=O)cc1	-	0	-	-	-	-
CCCCn1c(=O)c2oc3ccccc3c2n(Cc2cccc(C)c2)c1=O	-	0	-	-	-	-
COc1ccc(C(O)(CC(C)C)C(CN2CCOCC2)c2ccccc2)cc1 (stereo unspecified)	0	88	0	0	0	0
CCc1ccc(C(O)(CC(C)C)C(CN2CCOCC2)c2ccccc2)cc1 (stereo unspecified)	0	0	0	0	0	0
SMILES	Rango release inh	D3 ag	PTAP TSG101 blk	DRD3 antagonist	MmCpn inh	Rango-impB inh
CS(=O)(=O)OCC(O)C(O)COS(C)(=O)=O (stereo unspecified)	-	0	-	-	-	-
O=S(=O)(NC(=NCc1ccccc1)c1ccccc1)c1ccc(Br)cc1	0	0	0	0	0	0
O=C(NCc1ccc(F)cc1)C(c1ccco1)N(C(=O)c1csnn1)c1ccccc1 (stereo unspecified)	0	49	0	0	0	0
C[N+](C)(CCOc1ccccc1)Cc1ccccc1	0	0	0	0	-	0
Cc1cc(C(C)(C)CC(C)(C)C)ccc1OCCOCC[N+](C)(C)Cc1ccccc1	0	0	0	0	0	65µM
CCN(Cc1ccccc1)C(=O)Cn1cc(S(=O)(=O)Cc2cccc(Cl)c2)c2ccccc21	-	0	-	-	-	-
COc1ccc(-n2ncc(Cl)c(Cl)c2=O)cc1	0	0	0	-74	0	0
COc1cc2c(cc1OC)[C@H](Cc1ccc(O)cc1)NCC2	0	0	0	-62	0	?
COc1cc2c(cc1O)C(Cc1ccc(O)cc1)NCC2 (stereo unspecified)	0	0	0	-107	0	0
COc1cc2c(cc1O)C(Cc1ccc(O)cc1)[N+](C)([O-])CC2 (stereo unspecified)	0	0	0	0	0	0
Cc1ccccc1OCc1ccc(-c2nc(C#N)c(NCc3cccnc3)o2)o1	-	0	-	-	-	-
Cc1occc1C(=O)N1CCN(c2ccc(Cl)cc2)CC1	0	0	0	0	0	0
Cc1cccc(N2CCN(C(=O)c3ccoc3C)CC2)c1C	0	36	0	0	0	0
Cc1cccc(C)c1NC(=O)NC1CC2CCC(C1)N2Cc1cccs1 (stereo unspecified)	0	0	0	0	0	0
Cc1cccc(NC(=S)NC2CC3CCCC(C2)N3Cc2cccs2)c1C (stereo unspecified)	0	0	0	-72	0	0
CCc1ccccc1NC(=S)NC1CC2CCCC(C1)N2Cc1cccs1 (stereo unspecified)	0	0	0	-76	0	0
CCN(C(=O)CSc1nc2n[nH]c(C)c2c(=N)n1-c1cccc(OC)c1)c1cccc(C)c1	-	0	-	-	-	-
Nc1ccn([C@@H]2O[C@H](C(=O)N(CCC3=CCCCC3)CC3CC3)[C@@H](O)[C@H]2O)c(=O)n1	-	40	-	0	-	-
O=C([C@H]1O[C@@H](n2ccc(=O)[nH]c2=O)[C@H](O)[C@@H]1O)N(CCC1=CCCCC1)CC1CC1	-	0	-	0	-	-
CC(=O)Nc1cccc(-c2cc(N3CCN(CCO)CC3)n3nccc3n2)c1	-	37	-	0	-	-
OCCN1CCN(c2cc(-c3ccc(CO)cc3)nc3ccnn23)CC1	-	0	-	?	-	-
COc1ccc(/C=N/Nc2cc(C)nc(-n3nc(C)cc3C)n2)cc1	0	0	0	0	0	0
COc1ccc(O)c(/C=N/Nc2nc(Nc3ccccc3)nc(-n3nc(C)cc3C)n2)c1	0	0	0	-117	0	0
Cc1cc(N/N=C/c2ccc(O)cc2O)nc(-n2nc(C)cc2C)n1	0	0	0	-122	0	0
COc1cc(/C=N/Nc2nc(Nc3ccccc3)nc(-n3nc(C)cc3C)n2)cc(OC)c1OC	0	0	0	0	0	0
Cc1cc(N/N=C/c2ccccc2O)nc(-c2ccccc2O)n1	0	0	0	-131	0	0
CCc1nn(CC(=O)N2CCN(c3cccc(C)c3C)CC2)c(=O)c2cc3sccc3n12	-	0	-	-	-	-
NC[C@@H]1O[C@H](C23CC4CC(CC(C4)C2)C3)Cc2c1ccc(O)c2O	?	88	0	0	0	0
CCCCCOc1ccc(C2SC(=O)NC2=O)cc1OCC (stereo unspecified)	-	0	-	-	-	-
